Experiments:
OPRD1-PK = target: T1, OPRD1-PK (Homo sapiens, UniProt P41143); experiment: Arrestin-EA EFC agonist assay, CHO cells expressing OPRD1-PK (FIG. 12A); assay type: cell-based
T1 construct: cloning junction ISFEL + gly-ser linker […]; PK1 (mutated ED, H to R); expressed in transfected cells; host or cells: CHO

Chains of the proteins cited; added tags and fusions are not shown. A line that says so, or that is headed by a name, gives the form on record, which may keep a tag or linker.
UniProt P41143, with tags, fused parts or gaps: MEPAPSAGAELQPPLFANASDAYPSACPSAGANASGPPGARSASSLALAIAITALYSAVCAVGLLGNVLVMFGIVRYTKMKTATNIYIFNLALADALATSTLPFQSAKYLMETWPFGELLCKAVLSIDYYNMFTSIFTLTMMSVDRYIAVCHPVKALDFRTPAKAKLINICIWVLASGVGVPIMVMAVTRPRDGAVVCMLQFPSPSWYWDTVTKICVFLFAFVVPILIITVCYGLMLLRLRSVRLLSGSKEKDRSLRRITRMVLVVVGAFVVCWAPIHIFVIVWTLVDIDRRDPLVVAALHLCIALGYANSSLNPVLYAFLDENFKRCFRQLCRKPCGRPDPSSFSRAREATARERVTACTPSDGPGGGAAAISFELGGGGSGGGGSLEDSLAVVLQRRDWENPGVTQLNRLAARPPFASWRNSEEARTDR
UniProt P35372, whole entry: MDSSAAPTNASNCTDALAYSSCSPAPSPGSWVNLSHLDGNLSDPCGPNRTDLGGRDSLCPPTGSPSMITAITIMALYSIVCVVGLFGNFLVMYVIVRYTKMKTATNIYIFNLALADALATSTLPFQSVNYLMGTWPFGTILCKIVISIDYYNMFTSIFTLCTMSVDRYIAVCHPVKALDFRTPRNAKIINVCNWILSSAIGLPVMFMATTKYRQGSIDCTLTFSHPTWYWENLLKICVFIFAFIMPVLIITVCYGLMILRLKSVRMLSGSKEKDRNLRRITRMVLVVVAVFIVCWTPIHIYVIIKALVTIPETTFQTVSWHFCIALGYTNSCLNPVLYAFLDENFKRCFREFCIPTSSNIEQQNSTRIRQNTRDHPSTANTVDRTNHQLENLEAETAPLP

OPRM1-PK = target: T2, OPRM1-PK (Homo sapiens, UniProt P35372); experiment: Arrestin-EA EFC agonist assay, U2OS cells expressing OPRM1-PK only; assay type: cell-based
T2 construct: PK (beta-galactosidase ED); expressed in transfected cells; host or cells: U2OS

SMILES | EC50 (OPRD1-PK) | EC50 (OPRM1-PK)
C[C@@H](NC(=O)[C@@H](N)Cc1ccc(O)cc1)C(=O)NCC(=O)N(C)[C@@H](Cc1ccccc1)C(=O)NCCO [DAMAGO, [D-Ala2,N-Me-Phe4,Gly5-ol]-enkephalin] | 36.4 µM | 
CC(C)C[C@@H](NC(=O)[C@H](Cc1ccccc1)NC(=O)CNC(=O)[C@@H](C)NC(=O)[C@@H](N)Cc1ccc(O)cc1)C(=O)O [DADLE] |  | 0.111 µM

— patent US20100120063A1, “GPCR Arrestin Assays” (DISCOVERX CORPORATION, priority 2008, published 2010)
